Measured values from ChEMBL document CHEMBL1126106, “O3-(2-carbomethoxyallyl) ethers of opioid ligands derived from oxymorphone, naltrexone, etorphine, diprenorphine, norbinaltorphimine, and naltrindole. Unexpected O3-dealkylation in the opioid radioligand displacement assay” (1992).

Protein sequences, listed by entry. Tags and fused reporters are not part of them.
UniProt P41144, whole entry: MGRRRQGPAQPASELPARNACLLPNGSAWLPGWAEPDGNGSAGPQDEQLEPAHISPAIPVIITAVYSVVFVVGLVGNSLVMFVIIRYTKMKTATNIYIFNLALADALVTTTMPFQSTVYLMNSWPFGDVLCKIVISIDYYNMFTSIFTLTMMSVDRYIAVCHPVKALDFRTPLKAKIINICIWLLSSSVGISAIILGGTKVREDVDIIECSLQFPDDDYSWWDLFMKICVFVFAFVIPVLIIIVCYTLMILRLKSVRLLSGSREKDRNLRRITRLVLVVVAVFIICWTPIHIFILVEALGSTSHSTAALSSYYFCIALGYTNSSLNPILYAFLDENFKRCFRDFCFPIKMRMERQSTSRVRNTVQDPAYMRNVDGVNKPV
UniProt P97266, whole entry: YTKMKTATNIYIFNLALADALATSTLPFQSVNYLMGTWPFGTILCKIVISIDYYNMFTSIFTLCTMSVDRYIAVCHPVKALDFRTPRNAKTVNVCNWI
UniProt P41145, whole entry: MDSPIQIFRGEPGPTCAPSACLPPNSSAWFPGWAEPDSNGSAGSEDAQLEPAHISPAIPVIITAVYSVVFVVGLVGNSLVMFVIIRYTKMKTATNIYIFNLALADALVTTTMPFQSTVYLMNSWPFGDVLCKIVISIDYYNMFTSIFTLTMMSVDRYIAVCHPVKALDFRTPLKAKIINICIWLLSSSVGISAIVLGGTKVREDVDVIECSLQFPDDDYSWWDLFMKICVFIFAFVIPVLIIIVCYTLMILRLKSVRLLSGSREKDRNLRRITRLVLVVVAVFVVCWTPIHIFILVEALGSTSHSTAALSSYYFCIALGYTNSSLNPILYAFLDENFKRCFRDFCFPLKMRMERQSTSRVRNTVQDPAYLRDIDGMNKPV
UniProt P41143, whole entry: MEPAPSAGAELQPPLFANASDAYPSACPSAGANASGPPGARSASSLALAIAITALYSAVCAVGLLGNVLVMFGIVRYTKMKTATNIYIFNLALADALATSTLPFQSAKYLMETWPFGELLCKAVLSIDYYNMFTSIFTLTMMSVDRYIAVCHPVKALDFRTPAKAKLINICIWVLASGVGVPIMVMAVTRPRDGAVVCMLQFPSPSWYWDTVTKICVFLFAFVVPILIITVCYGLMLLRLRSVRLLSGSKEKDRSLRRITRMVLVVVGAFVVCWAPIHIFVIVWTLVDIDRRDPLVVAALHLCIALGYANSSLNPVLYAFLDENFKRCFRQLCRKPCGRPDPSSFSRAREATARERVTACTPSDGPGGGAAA
UniProt P35372, whole entry: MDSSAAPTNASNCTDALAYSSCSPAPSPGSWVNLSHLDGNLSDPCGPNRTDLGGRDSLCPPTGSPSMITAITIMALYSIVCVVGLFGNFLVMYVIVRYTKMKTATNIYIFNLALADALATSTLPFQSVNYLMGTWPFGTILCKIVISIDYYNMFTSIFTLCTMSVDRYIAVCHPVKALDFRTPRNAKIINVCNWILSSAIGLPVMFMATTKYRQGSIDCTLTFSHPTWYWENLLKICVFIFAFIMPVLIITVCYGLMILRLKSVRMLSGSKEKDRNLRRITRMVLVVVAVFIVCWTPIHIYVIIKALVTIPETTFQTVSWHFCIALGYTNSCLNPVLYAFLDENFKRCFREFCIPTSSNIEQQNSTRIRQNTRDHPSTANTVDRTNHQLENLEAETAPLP

Experiments:
[1] = target: Kappa-type opioid receptor (Cavia porcellus, UniProt P41144); test: Inhibition of opioid receptor kappa by displacing 0.5 nM [3H]bremazocine in guinea pig brain membrane
[2] = target: Mu-type opioid receptor (Cavia porcellus, UniProt P97266); test: Inhibition of opioid receptor mu by displacing 1 nM [3H]DAGO in guinea pig brain membrane
[3] = target: Opioid receptors; mu/kappa/delta (Homo sapiens, UniProt P41145+P41143+P35372); test: Inhibition of total opioid receptor by displacing 0.5 nM [3H]bremazocine in guinea pig brain membrane

Row | Compound | IC50 [1] | IC50 [2] | IC50 [3]
1 | C=C(COc1ccc2c3c1O[C@H]1[C@@]4(OC)CC[C@@]5(C[C@@H]4C(C)(C)O)[C@@H](C2)N(CC2CC2)CC[C@]315)C(=O)OC [listing 1 of 2 here] | 3.6 nM | 1 nM | –
2 | C=C(COc1ccc2c3c1O[C@H]1[C@@]4(OC)CC[C@@]5(C[C@@H]4C(C)(C)O)[C@@H](C2)N(CC2CC2)CC[C@]315)C(=O)OC [listing 2 of 2 here] | – | – | 2.2 nM
